Laboratory results as given in patent US20030017565A1, “COMPOSITION AND METHOD FOR TREATING A POROUS ARTICLE AND USE THEREOF” (priority 1996, published 2003).

Assay: leaching of Japan cedar blocks, liquid treatment agent stored 2 weeks (Example 21)
Assay type: physicochemical
Settings: liquid agent stored airtight 2 weeks, diluted 10-fold; species as bracketed (Copper, Zinc, Nickel, Boron, H = hinokitiol), else the agent named
Description: Further, 6 g of the powdery treatment agent obtained in the same manner as described above was dissolved in 12 ml of deionized water to obtain a liquid treatment agent for a porous article. The liquid treatment agent was transferred into a 20 ml screw capped test tube. After the test tube stand airtightly at room temperature for 2 weeks, the liquid treatment agent was diluted 10-fold with deionized water to prepare a solution for treating a porous article. Japan cedar wood blocks were subjected to reduced pressure impregnation treatment with the solution thus obtained, drying/macromolecularization reaction, and elution treatment in the same manner as in Examples 3 and 4. The amounts of the lignosulfonic acid which were eluted were calculated and compared taking the amounts of it injected upon the impregnation treatment as 100%. The results are shown in Table 13, from which it can be seen that even with the liquid treatment agent, effective treatment of porous articles is possible.

Elution Rate (%) Chemical Agent: 17.8%
SMILES: OB(O)O [Boric acid (2 g), Boric acid]
